{"sequences": {"note": "By UniProt entry, the sequences of proteins in these tests, tags left out.", "UniProt P08912, whole entry": "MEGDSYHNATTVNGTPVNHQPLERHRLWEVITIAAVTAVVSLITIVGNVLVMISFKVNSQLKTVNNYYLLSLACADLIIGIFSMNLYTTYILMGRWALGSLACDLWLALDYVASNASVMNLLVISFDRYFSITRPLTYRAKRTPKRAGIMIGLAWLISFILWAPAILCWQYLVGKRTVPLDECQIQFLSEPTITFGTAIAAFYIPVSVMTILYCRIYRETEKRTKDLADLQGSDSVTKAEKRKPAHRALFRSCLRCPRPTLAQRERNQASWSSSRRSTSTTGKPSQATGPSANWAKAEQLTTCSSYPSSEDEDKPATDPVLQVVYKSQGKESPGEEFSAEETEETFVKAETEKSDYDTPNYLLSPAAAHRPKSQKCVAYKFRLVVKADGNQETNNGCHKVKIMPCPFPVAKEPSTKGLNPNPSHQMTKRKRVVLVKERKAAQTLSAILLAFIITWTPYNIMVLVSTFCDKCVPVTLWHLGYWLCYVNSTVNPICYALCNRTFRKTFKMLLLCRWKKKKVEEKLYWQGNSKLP"}, "source": "PubChem BioAssay AID624040", "about": "(The Scripps Research Institute Molecular Screening Center, 2012)", "note": "Only a part is listed here, and it is no random draw. Some results for these compounds are left out of this collection, so the calls shown say nothing about other tests. Active and inactive are the calls of the source.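 Rule for the calls: active = inhibition above a per-plate cutoff, the mean of that plate's test compounds plus 3 SD (cut at about 27% in these data); inactive = the rest.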", "data": [{"target": "Muscarinic acetylcholine receptor M5 (Homo sapiens) (UniProt P08912)", "assay": "CHRM5 blockers of acetylcholine calcium response – CHO cells, Fluo-8 calcium fluorescence, primary screen (AID 624040);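 note: 0% = acetylcholine EC80 with DMSO and 100% = DMSO without agonist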", "details": "CHO-hM5 cells, ACh EC80, at 3 µM, stronger effect = higher value", "values": [{"smiles": "Cc1ccccc1C(=O)NCC1(N2CCCCC2)CCCCC1", "inhibition": "inactive: 1.54%"}, {"smiles": "CN(C)c1ccc(C(=O)NCC2(N(C)C)CCCCC2)cc1", "inhibition": "inactive: -2.22%"}, {"smiles": "Cc1cc(C(=O)NCC2(N3CCCCC3)CCCCC2)ccc1[N+](=O)[O-]", "inhibition": "inactive: 6.34%"}, {"smiles": "O=C(NCC1(N2CCCCC2)CCCCC1)c1cccc(Br)c1", "inhibition": "inactive: 9.2%"}, {"smiles": "COc1ccc(C(=O)NCC2(N(C)C)CCCCC2)cc1", "inhibition": "inactive: 2.48%"}, {"smiles": "O=C(NCC1(N2CCCCC2)CCCCC1)c1cc(F)c(F)cc1Cl", "inhibition": "inactive: 9.54%"}, {"smiles": "O=C(NCC1(N2CCCCC2)CCCCC1)c1cc([N+](=O)[O-])ccc1Cl", "inhibition": "inactive: 10.4%"}, {"smiles": "Cc1ccc(C(=O)NCC2(N3CCCCC3)CCCCC2)cc1", "inhibition": "inactive: -4.17%"}, {"smiles": "CC(C)N1C(=O)CC2(CCN(CCOC(=O)C(O)(c3ccccc3)c3ccccc3)CC2)C1=O", "inhibition": "inactive: 2.86%"}, {"smiles": "COc1cc(SC)ccc1C(=O)NCC1(N(C)C)CCCCC1", "inhibition": "inactive: 5.91%"}, {"smiles": "CN(C)c1cccc(C(=O)NCC2(N(C)C)CCCCC2)c1", "inhibition": "inactive: -12.3%"}, {"smiles": "CC(C)Oc1ccc(C(=O)NCC2(N(C)C)CCCCC2)cc1", "inhibition": "inactive: 7.15%"}, {"smiles": "COc1ccc(Br)c(C(=O)NCC2(N3CCCCC3)CCCCC2)c1", "inhibition": "inactive: -2.22%"}, {"smiles": "COc1cc(C(=O)NCC2(N(C)C)CCCCC2)c([N+](=O)[O-])cc1OC", "inhibition": "inactive: -4.65%"}, {"smiles": "CN(C)C1(CNC(=O)c2ccc(Br)cc2)CCCCC1", "inhibition": "inactive: 1.48%"}, {"smiles": "O=C(NCC1(N2CCCCC2)CCCCC1)c1cccc(Cl)c1", "inhibition": "inactive: 4.18%"}, {"smiles": "COc1cccc(C(=O)NCC2(N3CCCCC3)CCCCC2)c1", "inhibition": "inactive: -2.66%"}, {"smiles": "COc1ccc(Cl)cc1C(=O)NCC1(N(C)C)CCCCC1", "inhibition": "inactive: 14%"}]}]}
